Reference: patent US20070167349A1, “Estrogen cancer therapy” (Cell Therapeutics, Inc., priority 2005, published 2007)

How the values were obtained:
RAW cell layers = details: 10 nM to 10 μM PPX, 4 hours; co-stained with anti-EEA-1; data not shown
[1] = 24 hours after single i.v. 90 mg/kg PTX equivalent
[2] = tested on: RAW 264.7 mouse monocyte/macrophage; assay: ^14C-PPX cellular uptake, scintillation counting of ethyl acetate extracted cell layers; details: RAW cultured macrophages

paclitaxel poliglumex [PPX]
localisation of PPX immunostaining (RAW cell layers): co-localized with an endosomal marker
CT-2D5 positive cells per field, liver ([1]; cells compatible with Kupffer cells): approximately 20 cpf
CT-2D5 positive cells per field, spleen ([1]; cells with macrophage morphology): 10-15 cpf
CT-2D5 positive cells per field, lung ([1]; compatible with type II pneumocytes): < 1 cpf
CT-2D5 positive cells per field, tumor capsule ([1]; infiltrating macrophages): ≈ 2 cpf
mechanism of uptake of intact PPX into the cellular compartment [2]: energy-dependent endocytosis, in a dose- and time-dependent manner
